# Measured water solubility values of organic chemicals

Values as listed in the OPERA 2.9 repository of K. Mansouri.

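OPERA's authors assembled the values from existing databases and did not measure them anew. One number stands for a compound and property, with no spread given. How each value was measured is not recorded, so precision varies. Where a salt, mixture or single isomer is drawn, the source does not say that exactly this form was tested. Some entries may be limits or estimates that an upstream database listed as plain numbers.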

Solubility in water is on a log10 molar scale (set defined at 25 °C).
"n/a" marks a cell with nothing listed here.

Listed for CC(C)NCC(O)COc1cccc2[nH]ccc12 (configuration not stated) [Pindolol]: log S -3.676 (log10 mol/L).
Listed for COc1cc(CC(=O)O)ccc1O [Homovanillic acid]: log S -1.03 (log10 mol/L).
Listed for CC1(C)C=C(C2(C)OCC(C)(C)CO2)CCC1: log S -4.526 (log10 mol/L).
Listed for CC(O)C1C(=O)N2C(C(=O)O)=C(SC3CNC(C(=O)N(C)C)C3)C(C)C12.O.O.O (configuration not stated) [Meropenem trihydrate]: log S -1.89 (log10 mol/L).
Listed for C=CC(=O)OCCOCC(CC)CCCC (configuration not stated): log S -3.074 (log10 mol/L).
Listed for CC(=O)OCC1CCC(C)=CC1C (configuration not stated) [2,4-Dimethylcyclohex-3-ene-1-methyl acetate]: log S -3.25 (log10 mol/L).
Listed for NC(=O)Nc1ccccc1 [1-Phenylurea]: log S -0.898 (log10 mol/L).
Listed for O=C(O)CCC(=O)NC(Cc1cc(I)c(Oc2cc(I)c(O)c(I)c2)c(I)c1)C(=O)O (stereo in doubt): log S -1.965 (log10 mol/L).
Listed for CCCCCCCCC=CCCCCCCCC1=NC(CC)(CO)CO1 (configuration not stated): log S -5.148 (log10 mol/L).
Listed for O=C(Nc1cccc2c1C(=O)c1ccccc1C2=O)c1ccc(-c2ccc(N=Nc3ccc(-c4ccc(C(=O)Nc5cccc6c5C(=O)c5ccccc5C6=O)cc4)cc3)cc2)cc1 [C.I. Vat Yellow 33]: log S -5.716 (log10 mol/L).
Listed for Cn1[nH]c(=O)c(=O)nc1SCC1=C(C(=O)O)N2C(=O)[C@@H](N)C2SC1 (stereo partly drawn): log S -3.303 (log10 mol/L).
Listed for C=COC1CCCCC1 [(Ethenyloxy)-cyclohexane]: log S -2.583 (log10 mol/L).
Listed for COCCOc1cnc(NS(=O)(=O)c2ccccc2)nc1 [Glycodiazine]: log S -3.397 (log10 mol/L).
Listed for S=c1ncc2nccnc2[nH]1 [Pteridine-2(1H)-thione]: log S -2.36 (log10 mol/L).
Listed for CCC1CC2CC1CC2OC (configuration not stated) [2-Ethyl-5-methoxybicyclo[2.2.1]heptane]: log S -2.724 (log10 mol/L).
Listed for CCC(=O)O[C@]1(C(=O)S)[C@H](C)C[C@H]2[C@@H]3C[C@H](F)C4=CC(=O)C=C[C@]4(C)[C@@]3(F)[C@@H](O)C[C@@]21C: log S -3.943 (log10 mol/L).
Listed for CC(=O)Nc1cccc(Nc2cc(S(=O)(=O)[O-])c(N)c3c2C(=O)c2ccccc2C3=O)c1.[Na+] [C.I. Acid Blue 324]: log S -4.418 (log10 mol/L).
Listed for FCOC(C(F)(F)F)C(F)(F)F [Sevoflurane]: log S -2.131 (log10 mol/L).
Listed for CC(C)CCOC(=O)CC(C)C [3-Methylbutyl 3-methylbutanoate]: log S -3.554 (log10 mol/L).
Listed for CCCCCCCCCC(C)C=O (configuration not stated) [2-Methylundecanal]: log S -5.152 (log10 mol/L).
Listed for Cc1ccccc1N=Nc1ccc(N=Nc2c(O)ccc3ccccc23)c(C)c1 [C.I. Solvent Red 24]: log S -7.219 (log10 mol/L).
Listed for CN(C=O)c1ccccc1 [Formamide, N-methyl-N-phenyl-]: log S -1.495 (log10 mol/L).
Listed for CCOP(=O)(Cc1cc(C(C)(C)C)c(O)c(C(C)(C)C)c1)OCC: log S -4.435 (log10 mol/L).
Listed for CCOC(=O)c1c(C(=O)O)cccc1[N+](=O)[O-] [2-Carbethoxy-3-nitrobenzoic Acid]: log S -1.916 (log10 mol/L).
Listed for CC(C)CCCC(C)CCCCCCCCCC(=O)OCC(C)(C)COC(=O)CCCCCCCCCC(C)CCCC(C)C (configuration not stated): log S -7.901 (log10 mol/L).
Listed for Clc1cccc(Oc2cc(Cl)c(Cl)cc2Cl)c1: log S -7.27 (log10 mol/L).
Listed for N#Cc1c(F)cccc1F [2,6-Difluorobenzonitrile]: log S -1.871 (log10 mol/L).
Listed for O=C(NOC(=O)c1ccco1)c1ccco1 [N-[(Furan-2-carbonyl)oxy]furan-2-carboxamide]: log S -1.972 (log10 mol/L).
Listed for CCCCCC#CC(=O)OC [Methyl 2-octynoate]: log S -3.009 (log10 mol/L).
Listed for CO[C@H]1C[C@H](O[C@H]2[C@H](C)O[C@@H](O[C@@H]3C(C)=CC[C@@H]4C[C@@H](C[C@]5(CC[C@H](C)[C@@H](C6CCCCC6)O5)O4)OC(=O)[C@@H]4C=C(C)[C@@H](O)[C@H]5OCC(=CC=C[C@@H]3C)[C@]54O)C[C@@H]2OC)O[C@@H](C)[C@@H]1O: log S -5.977 (log10 mol/L).
Listed for CCOc1ccc(N2C(=O)CCC2=O)cc1 [1-(4-Ethoxyphenyl)-2,5-pyrrolidinedione]: log S -2.461 (log10 mol/L).
Listed for COC(=O)C(C)OC(C)=O (configuration not stated) [methyl 2-acetoxypropanoate]: log S -0.261 (log10 mol/L).
Listed for O=c1c2ccc3c(=O)n4c5ccccc5nc4c4ccc(c2c34)c2nc3ccccc3n12 [Algol Bordeaux RR]: log S -5.633 (log10 mol/L).
Listed for CCCCCCCCCCOc1ccc(C(c2ccccc2)(c2ccccc2)c2ccccc2)cc1C(C)CC (configuration not stated): log S -7.787 (log10 mol/L).

The 5 lowest values of log S among the entries above:

compound	name	log S (log10 mol/L)
CC(C)CCCC(C)CCCCCCCCCC(=O)OCC(C)(C)COC(=O)CCCCCCCCCC(C)CCCC(C)C (configuration not stated)	n/a	-7.901
CCCCCCCCCCOc1ccc(C(c2ccccc2)(c2ccccc2)c2ccccc2)cc1C(C)CC (configuration not stated)	n/a	-7.787
Clc1cccc(Oc2cc(Cl)c(Cl)cc2Cl)c1	n/a	-7.27
Cc1ccccc1N=Nc1ccc(N=Nc2c(O)ccc3ccccc23)c(C)c1	C.I. Solvent Red 24	-7.219
CO[C@H]1C[C@H](O[C@H]2[C@H](C)O[C@@H](O[C@@H]3C(C)=CC[C@@H]4C[C@@H](C[C@]5(CC[C@H](C)[C@@H](C6CCCCC6)O5)O4)OC(=O)[C@@H]4C=C(C)[C@@H](O)[C@H]5OCC(=CC=C[C@@H]3C)[C@]54O)C[C@@H]2OC)O[C@@H](C)[C@@H]1O	n/a	-5.977